## scFv variants of Ab-14 (light chain) against a SARS-CoV-2 spike peptide

Values reported by Li et al. 2023, doi:10.1038/s41467-023-39022-2 (FLAb copy).

The target is the same throughout: PDVDLGDISGINAS, from the HR2 region of SARS-CoV-2 spike.

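Phage display of a naive human antibody library on the peptide gave the parent. These sequences belong to a second round, designed from the earlier measurements on random variants of the parent. Their group label is 14L_En_Gen (En: ensemble of fine-tuned language models; Gen: genetic algorithm). Affinity was read by AlphaSeq, a pooled yeast mating assay with surface-displayed partners. After mating in shaken culture at 30 °C for 16 h, diploids were selected and their barcode pairs sequenced. The ratio of observed to expected reads was calibrated, replicate by replicate, on BCL2-family standards whose Kd was known from biolayer interferometry. The assay was run in six technical replicates.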

Parent scFv Ab-14: VH joined to VL by a 15-residue (Gly4Ser)3 linker. Changes lie in the light chain CDRs alone.
VH: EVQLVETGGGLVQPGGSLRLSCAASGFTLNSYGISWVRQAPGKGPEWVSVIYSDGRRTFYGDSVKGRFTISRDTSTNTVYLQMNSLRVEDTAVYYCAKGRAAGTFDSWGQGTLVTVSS
VL: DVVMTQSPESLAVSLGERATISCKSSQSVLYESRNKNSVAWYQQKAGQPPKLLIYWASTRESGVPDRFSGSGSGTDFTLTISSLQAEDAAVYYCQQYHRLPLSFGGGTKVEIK

The parent's light chain CDRs are KSSQSVLYESRNKNSVA, WASTRES, QQYHRLPLS; each variant's own CDRs replace them letter for letter. Numbers give log10(Kd / nM), so 0 is 1 nM and 3 is 1 µM. Smaller is tighter. A mean of the replicates is given; it leaves out those without a signal. Where no diploid with the target was found in that replicate, the entry reads "n.d.": below detection, most likely a poor binder, though not proof of it. Of ten entries with the parent sequence, four were seen in most replicates (averages 0.34 to 2.37), three in one and three in none, so single entries are noisy. The range of this assay differs from that of the first round, and the authors advise against merging the two. Background: pairings of all light chain designs with three empty control strains gave a value in 4% of cases (median 2.64, 5th percentile 1.59). Values in that range, when seen in few replicates, are hard to tell from nonspecific mating. For each scFv, signals with the empty controls are counted beside the result, with their mean in brackets. The authors' rule: three or more of the six replicates give a measured affinity, fewer mean a poor binder.

CDR-L1	CDR-L2	CDR-L3	replicates, log10 nM	mean log10 Kd (nM)	signal with controls
SIGLATMLEEYARNSVA	NNSTREE	QQYDRLPLS	n.d. / n.d. / n.d. / n.d. / n.d. / n.d.	n.d.	2 of 18 (2.22)
KIGMTLNTLSHKQNNVA	DLVTREN	QQYYRLPLS	0.51 / 0.16 / 0.51 / 0.24 / 0.59 / 0.55	0.43	0 of 18
KLSQITGHLSVSKNNVA	EMETREN	QQYDRLPLS	1.37 / 0.92 / 1.65 / 1.40 / 1.12 / 1.52	1.33	1 of 18 (2.53)
MLSDVTNGMARKHYSVA	DNSTRES	QQYDRLPLS	3.03 / 2.53 / 3.56 / 2.75 / 3.51 / 3.02	3.07	7 of 18 (3.14)
TISSVMNHMTRIKNNVA	NQDMREA	QQYDRLPLS	0.39 / 0.68 / 0.32 / 0.41 / 0.25 / 0.44	0.41	0 of 18
MLSMVTEGMVRKHDSVA	DNSTRES	QQYDRLPLS	1.06 / 0.54 / 0.97 / 0.61 / 0.91 / 0.56	0.77	0 of 18
TIGQTLMSGVKNRSNVA	EVSQRLN	QQYDRLPLL	1.08 / 1.28 / 1.47 / 1.59 / 1.25 / 1.60	1.38	0 of 18
TISMVMNHMTRIDHNVA	NQDMREN	QQYDRLPLS	0.19 / 0.44 / 0.66 / 0.96 / 0.26 / -0.02	0.42	0 of 18
HMSTLTLMGMRQRNSVA	QMTTREN	QQYDRLPLA	1.04 / 0.91 / 0.99 / 0.91 / 1.37 / 1.34	1.09	1 of 18 (3.32)
MISQLYNMGQFAINSVA	QASTRNE	QQYDRLPLM	0.18 / -0.16 / 0.06 / -0.49 / -0.52 / -0.02	-0.16	0 of 18
SLGLMTMLEEYVRNSVA	NNSTREE	QQYDRLPLS	n.d. / 1.67 / n.d. / n.d. / n.d. / n.d.	1.67	0 of 18
NIGMTLNQLMHKKNNVA	DLVERET	QQYFRLPLS	1.33 / 0.11 / 0.00 / 0.45 / 0.00 / 0.59	0.42	0 of 18
KLGMTLNTLMHKQNNVA	DLVTREN	QQYFRLPLS	0.29 / 0.94 / 0.33 / -0.02 / 0.05 / 0.60	0.37	1 of 18 (1.33)
KLSGLMSSSKFQKDNVA	ENNTREK	QQYERLPLS	1.96 / 1.11 / n.d. / 1.71 / n.d. / n.d.	1.59	1 of 18 (1.52)
TISQVLNTLTKVGNNVA	DLAERED	QQYFRLPLS	1.05 / 0.70 / 0.50 / 1.00 / 0.85 / 0.95	0.84	3 of 18 (3.34)
NIYQAMHTLSQMKDNVA	DVNERGS	QQYFRLPLS	0.47 / 0.34 / 0.17 / 0.18 / 0.62 / 0.59	0.40	1 of 18 (2.39)
TISQMTSLFSQSINNVA	EVSMRES	QQYDRLPLM	1.68 / 1.52 / 1.52 / 1.16 / 1.48 / 1.87	1.54	3 of 18 (3.69)
HIGLATMLEETVRNSVA	NNSTRES	QQYDRLPLS	2.43 / 2.50 / 2.45 / 1.91 / 1.81 / 2.36	2.24	0 of 18
KIGMTLNQLMHQKNNVA	DLVTRED	QQYHRLPLS	0.63 / 0.66 / 1.02 / 0.93 / 0.94 / 0.80	0.83	1 of 18 (2.62)
TIGQTLMAGIRNRSNVA	EVSQRLN	QQYDRLPLI	1.50 / 1.66 / 1.49 / 1.99 / 1.86 / 1.92	1.74	3 of 18 (3.63)
KLSQTSGMEHVNRNSVA	ELVTRMS	QQYNRLPLS	1.47 / 1.19 / 0.87 / 1.11 / 1.27 / 0.81	1.12	1 of 18 (3.18)
KLTMITGTEKVKGNNVA	EMETRER	QQYNRLPLA	0.91 / 0.64 / 0.14 / 0.60 / 0.15 / 0.36	0.46	0 of 18
IVSQLMLWGLHAKNSIA	EATTRLN	QQYDRLPLF	1.58 / n.d. / n.d. / n.d. / n.d. / n.d.	1.58	0 of 18
KIGHTLNTLYEKANNVA	DLVAREN	QQYHRLPLS	1.55 / 1.59 / 1.77 / 1.10 / 1.31 / 1.27	1.43	2 of 18 (2.49)
SIGGHMKSSMAHRNSVA	DMTNREE	QQYDRLPLS	0.20 / 0.28 / -0.15 / 0.26 / 0.05 / 0.35	0.16	1 of 18 (2.50)
MISQLMNMGTFAINSVA	QATIRNE	QQYDRLPLA	n.d. / 1.05 / n.d. / n.d. / 1.25 / n.d.	1.15	0 of 18
HMSMLTMMGMKQRNSVA	QMTMREN	QQYDRLPLV	n.d. / n.d. / n.d. / 2.48 / n.d. / n.d.	2.48	1 of 18 (1.79)
KVSEFMKGLMMRTDSIA	DNVTRNK	QQYDRLPLS	1.85 / n.d. / 3.18 / n.d. / 1.44 / n.d.	2.16	0 of 18
IVSQLMLWGLHAKNSIA	EAELRLN	QQYDRLPLI	n.d. / 0.74 / n.d. / n.d. / n.d. / 2.29	1.52	0 of 18
MVSQLMVWGLHTKNSIA	EAQMRLN	QQYDRLPLF	n.d. / 2.39 / n.d. / n.d. / 2.20 / n.d.	2.30	1 of 18 (1.78)
KIGMTLNQHLHQKNNVA	DLVERVN	QQYHRLPLS	0.48 / 0.87 / 0.65 / 0.26 / 0.37 / 0.20	0.47	0 of 18

Repeated from above, the 5 best binders with a signal in all replicates:

CDR-L1	CDR-L2	CDR-L3	replicates, log10 nM	mean log10 Kd (nM)	signal with controls
MISQLYNMGQFAINSVA	QASTRNE	QQYDRLPLM	0.18 / -0.16 / 0.06 / -0.49 / -0.52 / -0.02	-0.16	0 of 18
SIGGHMKSSMAHRNSVA	DMTNREE	QQYDRLPLS	0.20 / 0.28 / -0.15 / 0.26 / 0.05 / 0.35	0.16	1 of 18 (2.50)
KLGMTLNTLMHKQNNVA	DLVTREN	QQYFRLPLS	0.29 / 0.94 / 0.33 / -0.02 / 0.05 / 0.60	0.37	1 of 18 (1.33)
NIYQAMHTLSQMKDNVA	DVNERGS	QQYFRLPLS	0.47 / 0.34 / 0.17 / 0.18 / 0.62 / 0.59	0.40	1 of 18 (2.39)
TISSVMNHMTRIKNNVA	NQDMREA	QQYDRLPLS	0.39 / 0.68 / 0.32 / 0.41 / 0.25 / 0.44	0.41	0 of 18